Experimental data reported in publication PMC12473906, “Comparing the Altis RepliGut Organoid System to MDCK Monolayers in Predicting the Oral Absorption of Lenalidomide” (Pharmaceutics, 2025).

Columns and labels:
[1] = gMDCK (P-gp knockout MDCK) monolayer permeability assay; details: dog, pH 7.4
[2] = RepliGut human jejunal organoid-derived monolayer permeability assay; details: human, pH 7.4
[3] = system: human intestinal organoid-derived monolayer (RepliGut); test: as above; details: organoid vs gMDCK

## CC(C)CN(C[C@@H](O)[C@H](Cc1ccccc1)NC(=O)O[C@H]1CCOC1)S(=O)(=O)c1ccc(N)cc1 [Amprenavir]
[1]
  Papp at 3 h: 8.5 ×10⁻⁶ cm/s
[2]
  Papp at 3 h: 0.35 ×10⁻⁶ cm/s
  efflux ratio at 3 h: > 4
[3]
  apical to basolateral apparent permeability in intestinal organoids compared with gMDCK monolayers: significantly lower
  basolateral to apical permeability in intestinal organoids compared with gMDCK cells: similar
